Source: PubChem BioAssay (Broad Institute)
INS-1E GSIS act = primary screen for activators of insulin secretion dependent on glucose, INS-1E cells, GLuc reporter luminescence | 370,000 tested, 0.61% active | AID 743287 | INS-1E GLuc reporter insulin secretion, 2-3 h | activation, % at 16.6 µM;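 active = lowest replicate activation of at least 40%, so every replicate reaches that level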
SR-BI DiI inh = blocks mouse SR-BI lipid uptake from DiI-HDL. Q61009. ldlA[mSR-BI] CHO cells, DiI-HDL uptake fluorescence, 3 h. inhibition, % at 12.5 µM. 320,000 tested, 0.96% active. AID 488896;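 active = mean replicate inhibition of at least 70% and a set share of replicates each scoring 70 or more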
Yeast UUG start = alters start codon recognition fidelity in yeast | S. cerevisiae UUG-firefly luciferase reporter, luminescence/redox ratio | activity score, % at 18.7 µM | 350,000 compounds, 0.13% hits | AID 602363;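 active = replicate mean at a twofold rise or more, about +100% in these data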;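 note: firefly luciferase made from a UUG start codon reports start codon fidelity; reporter light over untreated wells divided by growth signal over untreated wells; some hits fall short of that in this replicate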
SR-BI uptake up = SR-BI HDL lipid transfer activation | CHO ldlA[mSR-BI] cells, DiI-HDL uptake fluorescence, 3 h; 100 = double the neutral-control signal | activation, % at 12.5 µM | 320,000 tested, 0.096% active;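 active = mean replicate activation of at least 60% and every replicate at or above 60%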
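Test system: SR-BI-overexpressing, LDLR-lacking CHO cells; Also added: labelled HDL, 10 µg/mL; Measured by: bottom-read cell fluorescence after medium removal, ex 550/em 595 nm; Timing: 3 h uptake period with compound, 37 °C; Buffer or medium: F12, 0.5% BSA, 25 mM HEPES; Doses: single compound concentration, delivered by pin transfer.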
Large screens that a line does not name were inactive. Sampled rows, rich in hits. Any-hit rate of the full collection: about 1.3%.

Cc1cc(/C=N\NC(=O)c2cccs2)c(C)n1-c1ccc2ncccc2c1	SR-BI DiI inh 73.3 (no result: INS-1E GSIS act)
CS(=O)(=O)c1ccc(C(=O)OCC(=O)NC(=O)C2COc3ccccc3O2)cc1[N+](=O)[O-] (stereo unspecified)	INS-1E GSIS act 105.8
CS(=O)(=O)c1ccc(C(=O)OCC(=O)NC(=O)C2CCCCC2)cc1[N+](=O)[O-]	none (no result: Yeast UUG start)
CCNc1ccc(C(=O)OCC(=O)NCc2ccccc2Cl)cc1[N+](=O)[O-]	INS-1E GSIS act 58.8 (no result: Yeast UUG start)
CS(=O)(=O)c1ccc(C(=O)OCc2nnc(-c3ccccc3)o2)cc1[N+](=O)[O-]	INS-1E GSIS act 70.6 (no result: Yeast UUG start)
CC(=O)c1cccc(NC(=O)COC(=O)c2ccc(S(C)(=O)=O)c([N+](=O)[O-])c2)c1	INS-1E GSIS act 48.0 (no result: Yeast UUG start)
CN(C)S(=O)(=O)c1ccc(C(=O)OCc2nnc(-c3ccccc3)o2)cc1	none
CNC[C@H]1OCc2ccccc2-c2c(n(C)c3ccccc23)C(=O)N([C@H](C)CO)C[C@@H]1C	none (no result: SR-BI DiI inh, Yeast UUG start, SR-BI uptake up)
O=C(NC1CCCC1)N1CC(=O)N2[C@H](C1)[C@H](c1ccc(-c3cccc(F)c3)cc1)[C@@H]2CO	none (no result: SR-BI DiI inh, Yeast UUG start, SR-BI uptake up)
O=C(OCc1ccc(C(=O)c2ccccc2)cc1)c1cccc(-c2nnc(-c3ccccc3)o2)c1	none
CS(=O)(=O)c1ccc(C(=O)OCC(=O)Nc2cccnc2Cl)cc1[N+](=O)[O-]	INS-1E GSIS act 118.3
O=C(OCc1ccccc1)c1cccc(-c2nnc(-c3ccccc3)o2)c1	SR-BI uptake up 62.4
CC1=C(C#N)C(=O)N(C)C(C)(C)C1	SR-BI uptake up 140.4 (no result: INS-1E GSIS act)
COc1ccccc1C1CC(c2ccc(Br)cc2)=NN1C(=O)c1cccnc1 (stereo unspecified)	SR-BI DiI inh 73.8 (no result: Yeast UUG start)
COc1ccc(C2CC(c3ccc(OC)c(OC)c3)=NN2C(=O)c2ccccc2)cc1 (stereo unspecified)	INS-1E GSIS act 66.5
COc1cccc(C2CC(c3ccc(Br)cc3)=NN2C(=O)c2ccncc2)c1OC (stereo unspecified)	none (no result: Yeast UUG start)
O=C(c1ccncc1)N1N=C(c2ccc(Cl)cc2)CC1c1ccccc1O (stereo unspecified)	SR-BI DiI inh 82.1
O=C(C[C@H]1C=C[C@@H](NC(=O)C2CCOCC2)[C@H](CO)O1)NCc1ccccc1Cl	none (no result: SR-BI DiI inh, Yeast UUG start, SR-BI uptake up)
C=CCNC(=O)c1cc(-c2ccc3c(c2)OCO3)on1	INS-1E GSIS act 43.3
COCCNC(=O)c1cc(-c2ccc3c(c2)OCO3)on1	none (no result: INS-1E GSIS act)
Cc1cc(Cl)ccc1OCC(=O)N1CCCCC1	none (no result: INS-1E GSIS act)
O=C(COc1ccc(Cl)cc1Cl)N1CCCN(C(=O)COc2ccc(Cl)cc2Cl)CC1	SR-BI DiI inh 84.8
CN=c1scc(-c2ccco2)n1/N=C/c1ccc(O)c(O)c1	SR-BI DiI inh 73.0 (no result: Yeast UUG start)
COc1ccc(O)c(/C=N/n2c(-c3ccco3)csc2=Nc2cccnc2)c1	none (no result: Yeast UUG start)
CCOC(=O)c1ccc(Nc2ncnc3ccc(C)cc23)cc1	INS-1E GSIS act 85.2
Cc1ccc(-n2nc(C)c(=O)c(-c3ccccc3)c2NC(=O)c2cccs2)cc1	none (no result: INS-1E GSIS act, Yeast UUG start)
CCCC(=O)Nc1c(-c2ccccc2)c(=O)c(C)nn1-c1ccc(C)cc1	SR-BI uptake up 314.7
O=C(c1ccncc1)N1C[C@@H]2[C@H](c3ccccc31)[C@@H](CO)N2C(=O)Nc1ccc(F)cc1	none (no result: SR-BI DiI inh, SR-BI uptake up)
CCN(CC)S(=O)(=O)c1ccc(C(=O)NCCc2cc3c(OC)ccc(OC)c3[nH]c2=O)cc1	SR-BI DiI inh 88.6 (no result: Yeast UUG start)
COCC(=O)N1CC2(C1)[C@@H](c1ccccc1)[C@H](CO)N2C(=O)c1cccnc1	none (no result: SR-BI DiI inh, Yeast UUG start, SR-BI uptake up)
COc1cc(C)c(C)cc1S(=O)(=O)N1CCCCC1c1cccnc1 (stereo unspecified)	INS-1E GSIS act 57.1
CC(=O)Nc1ccc(S(=O)(=O)N2CCCCC2c2cccnc2)cc1 (stereo unspecified)	none (no result: INS-1E GSIS act)
Cc1cc(C(=O)Nc2cccc3c2O[C@H](CN(C)CC2CC2)[C@@H](C)CN([C@@H](C)CO)C3=O)n(C)n1	none (no result: SR-BI DiI inh, SR-BI uptake up)
COc1ccccc1Nc1ccc(Nc2ccccc2OC)nn1	SR-BI DiI inh 80.7 (no result: Yeast UUG start)
CNC(=O)C[C@@H]1CC[C@H]2[C@H](COc3ccc(NC(=O)C4CCCCC4)cc3C(=O)N2C)O1	none (no result: SR-BI DiI inh, SR-BI uptake up)
O=C(Nc1ccc(O)cc1)c1ccccc1OCc1ccccc1	none
O=C(Nc1ccc(F)cc1)c1cccnc1Oc1ccccc1	INS-1E GSIS act 88.7
O=C(Nc1ccccc1)c1ccccc1OCc1ccc(F)cc1	SR-BI DiI inh 74.1
O=C(Nc1ccccc1C(=O)Nc1ccc(F)cc1)c1ccco1	SR-BI DiI inh 74.8
O=C(CN1CCN(CC(=O)Nc2ccc(OCc3ccccc3)cc2)CC1)Nc1ccc(F)cc1	SR-BI uptake up 450.6
Cc1ccccc1NC(=O)c1ccccc1NC(=O)c1ccco1	none (no result: INS-1E GSIS act)
CO[C@@H]1CN(C)C(=O)c2ccc(NC(=O)CC(F)(F)F)cc2OC[C@H](C)N(CC2CC2)C[C@@H]1C	none (no result: SR-BI DiI inh, Yeast UUG start, SR-BI uptake up)
C[C@H]1CCCCO[C@H](CN(C)C(=O)c2ccncc2)[C@@H](C)CN([C@@H](C)CO)C(=O)c2cc(NS(=O)(=O)c3cn(C)cn3)ccc2O1	none (no result: SR-BI DiI inh, SR-BI uptake up)
COc1ccc(C[C@H]2CCn3cc(nn3)COCCNC2=O)cc1	none (no result: SR-BI DiI inh, Yeast UUG start, SR-BI uptake up)
CCOc1ccc(CCNC(=O)COc2cc(=O)n(C)c3ccccc23)cc1OCC	INS-1E GSIS act 52.4 (no result: Yeast UUG start)
COc1ccc(CCNC(=O)CN2CCN(Cc3ccccc3F)C2=O)cc1OC	none
CCOc1ccc(CCNC(=O)CN2CCN(Cc3ccccc3C)C2=O)cc1OCC	SR-BI DiI inh 79.2 (no result: INS-1E GSIS act)
CCOc1ccc(CCNC(=O)Cn2ccc3ccccc3c2=O)cc1OCC	INS-1E GSIS act 50.3 (no result: Yeast UUG start)
CCOc1ccc(CCNC(=O)Cn2cccc2C(=O)c2ccccc2)cc1OCC	none (no result: Yeast UUG start)
CCOc1ccc(CCNC(=O)CSc2cc(=O)n(C)c3ccccc23)cc1OCC	INS-1E GSIS act 56.6
C[C@@H](NC(=O)C[C@H]1C[C@H]2c3cc(NC(=O)c4cccnc4)ccc3O[C@H]2[C@@H](CO)O1)c1ccccc1	none (no result: SR-BI DiI inh, Yeast UUG start, SR-BI uptake up)
CC(C)NC(=O)N1CC[C@@H]2[C@@H](CO)N(C)c3ccc(Br)cc3[C@@H]21	none (no result: SR-BI DiI inh, SR-BI uptake up)
COc1cccc(NC(=O)N2C[C@H](O)COC[C@H]3O[C@@H](CC(=O)NC4Cc5ccccc5C4)CC[C@@H]32)c1	none (no result: SR-BI DiI inh, Yeast UUG start, SR-BI uptake up)
CCOC(=O)c1c(C)[nH]c(C(C)=NNC(=O)c2cccs2)c1C	INS-1E GSIS act 53.8
CC(C(=O)N1CCC(C(N)=O)CC1)N(c1ccc(Oc2ccccc2)cc1)S(C)(=O)=O (stereo unspecified)	INS-1E GSIS act 50.3
CCN=C1S/C(=C\c2cc(Cl)c(OC)c(OC)c2)C(=O)N1CC	SR-BI DiI inh 77.1
CCN=C1S/C(=C\c2ccc(OCC)c(OC)c2)C(=O)N1CC	none (no result: Yeast UUG start)
CCc1c(C)nc2cc(-c3ccc(OC)c(OC)c3)nn2c1NCC1CC1	SR-BI DiI inh 88.8 (no result: INS-1E GSIS act, Yeast UUG start)
COc1ccc(NC(=O)Cc2c(SC)c3ccccc3n2Cc2ccccc2)cc1	INS-1E GSIS act 97.0 (no result: Yeast UUG start)
Cc1cccc(-c2ccc([C@H]3[C@H]4CN(C(=O)NC5CCCCC5)CC(=O)N4[C@H]3CO)cc2)c1	none (no result: SR-BI DiI inh, Yeast UUG start, SR-BI uptake up)
Cc1[nH]c2ccccc2c1/C=N/n1cnnc1	none (no result: INS-1E GSIS act)
COCCN=c1scc(-c2cc(OC)c(OC)c(OC)c2)n1/N=C/c1c(C)[nH]c2ccccc12	SR-BI DiI inh 92.0 (no result: INS-1E GSIS act)
